In patent US7368439B2, “Dinucleoside poly(borano)phosphate derivatives and uses thereof” (BAR - ILAN University, priority 2005, dated 2008) one finds decomposition data, which are given here for two substances.

Where two headings read alike, the source gives them in different places.

The conditions of the data set: pH 7.4/37° C., Tris/HCl buffer, 4 weeks (one month), sodium salts.

On to “diadenosine tri(borano)phosphate [compound 1]”, for which the decomposition result was “no decomposition even after one month”.

“diuridine tri(borano)phosphate [compound 2]”: the decomposition result was “no decomposition at all”. Moreover, where the note is “listed as Up3(β-B)U”, the decomposition result is “no decomposition even after one month”.
